Values quoted from earlier work as cited in US20250262305A1 (Aegis Therapeutics, LLC, priority 2018, published 2025).

Conditions: Mean ± SD, cited from earlier work

CNC[C@H](O)c1ccc(O)c(O)c1 [Epinephrine, (R)-4-(1-Hydroxy-2-(methylamino)ethyl)benzene-1,2-diol]
Cmax (Intramuscular (IM) 0.3 mg): 0.309 ± 0.088 ng/mL | AUC0-120 min (Intranasal (IN) 5 mg): 19.4 ± 12.1 ng·min/mL
